Experimental findings from patent US20230038929A1, “Fused Tricyclic Heterocyclic Compounds and Uses Thereof” (Verge Analytics, Inc., priority 2019, published 2023) are described below.

Chains of the proteins cited; added tags and fusions are not shown. Lines headed by an entry give the natural chain unless they say otherwise; changes in a name come on top.
UniProt P48736: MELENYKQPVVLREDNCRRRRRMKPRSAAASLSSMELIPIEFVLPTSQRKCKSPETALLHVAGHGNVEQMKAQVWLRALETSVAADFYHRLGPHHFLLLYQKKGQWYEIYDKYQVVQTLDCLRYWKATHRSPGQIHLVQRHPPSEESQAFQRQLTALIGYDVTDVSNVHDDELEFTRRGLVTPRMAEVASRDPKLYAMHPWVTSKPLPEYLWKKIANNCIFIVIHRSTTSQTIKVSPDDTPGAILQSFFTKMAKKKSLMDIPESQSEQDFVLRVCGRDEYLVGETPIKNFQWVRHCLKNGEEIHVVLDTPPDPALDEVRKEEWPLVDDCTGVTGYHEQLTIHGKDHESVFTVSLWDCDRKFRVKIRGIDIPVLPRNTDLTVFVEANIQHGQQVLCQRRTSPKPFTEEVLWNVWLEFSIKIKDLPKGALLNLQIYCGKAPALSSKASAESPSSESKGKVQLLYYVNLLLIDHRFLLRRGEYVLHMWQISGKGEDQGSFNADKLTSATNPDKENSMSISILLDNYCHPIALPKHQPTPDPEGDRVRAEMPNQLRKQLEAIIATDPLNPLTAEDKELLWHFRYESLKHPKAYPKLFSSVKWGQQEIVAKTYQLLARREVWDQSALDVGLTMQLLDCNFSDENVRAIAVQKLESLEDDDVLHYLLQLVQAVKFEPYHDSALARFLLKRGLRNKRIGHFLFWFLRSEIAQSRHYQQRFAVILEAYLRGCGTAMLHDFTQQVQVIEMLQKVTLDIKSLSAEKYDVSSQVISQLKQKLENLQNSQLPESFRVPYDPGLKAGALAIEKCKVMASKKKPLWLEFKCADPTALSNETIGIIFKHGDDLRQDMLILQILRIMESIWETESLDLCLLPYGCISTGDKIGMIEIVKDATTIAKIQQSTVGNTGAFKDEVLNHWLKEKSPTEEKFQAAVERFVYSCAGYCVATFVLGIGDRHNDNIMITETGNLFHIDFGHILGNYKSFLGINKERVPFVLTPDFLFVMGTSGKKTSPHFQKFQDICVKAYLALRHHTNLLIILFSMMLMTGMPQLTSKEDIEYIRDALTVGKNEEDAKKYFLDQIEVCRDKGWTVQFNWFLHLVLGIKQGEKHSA

Where a name gives a salt, the structure may show the parent alone. Bounds are passed on as bounds.

A word on the IC50: it is the midpoint of a concentration-inhibition curve. Lower therefore signals greater potency.

The experiment has as its target PI3Kγ (p120γ) (Homo sapiens, UniProt P48736). As to the kind of experiment: biochemical.
Compound `c1ccc(-c2cc(Nc3nc(N4CCOCC4)c4oc5ncccc5c4n3)[nH]n2)cc1` [Example 9, 4-Morpholino-N-(3-phenyl-1H-pyrazol-5-yl)pyrido[3′,2′:4,5]furo[3,2-d]pyrimidin-2-amine] returned an IC50 of more than 10 µM.

Compound `Cn1ccnc1Nc1nc(N2CCOCC2)c2oc3ncccc3c2n1` [Example 12, N-(1-Methyl-1H-imidazol-2-yl)-4-morpholinopyrido[3′,2′:4,5]furo[3,2-d]pyrimidin-2-amine] registered an IC50 of more than 10 µM.

In turn, `c1ccc(Nc2nc(N3CCOCC3)c3oc4ncccc4c3n2)nc1` [Example 40, 4-morpholino-N-(pyridin-2-yl)pyrido[3′,2′:4,5]furo[3,2-d]pyrimidin-2-amine] showed an IC50 of 2.04 µM.

In the case of `C[C@H](Nc1nc(N2CCOCC2)c2oc3ncccc3c2n1)C1CC1` [Example 36, (S)-N-(1-cyclopropylethyl)-4-morpholinopyrido[3′,2′:4,5]furo[3,2-d]pyrimidin-2-amine], the IC50 amounted to 2.65 µM.

For the compound `Cc1cc(N(C)c2nc(N3CCOCC3)c3oc4ncccc4c3n2)nn1C` [Example 11, N-(1,5-Dimethyl-1H-pyrazol-3-yl)-N-methyl-4-morpholinopyrido[3′,2′:4,5]furo[3,2-d]pyrimidin-2-amine], the IC50 was 4.67 µM.

`c1cnc2oc3c(N4CCOCC4)nc(Nc4cc(-c5ccncc5)n[nH]4)nc3c2c1` [Example 10, 4-Morpholino-N-(3-(pyridin-4-yl)-1H-pyrazol-5-yl)pyrido[3′,2′:4,5]furo[3,2-d]pyrimidin-2-amine] showed an IC50 of 0.582 µM.

Regarding `c1ccc(CCNc2nc(N3CCOCC3)c3oc4ncccc4c3n2)cc1` [Example 21, 4-morpholino-N-phenethylpyrido[3′,2′:4,5]furo[3,2-d]pyrimidin-2-amine], the IC50 stood at 1.41 µM.

Take `Cc1cc(Nc2nc(N3CCOCC3)c3oc4ncccc4c3n2)nn1C` [Example 47, N-(1,5-dimethyl-1H-pyrazol-3-yl)-4-morpholinopyrido[3′,2′:4,5]furo[3,2-d]pyrimidin-2-amine]: inhibition was half-maximal at 1.87 µM (IC50).

Turning to `c1cnc2oc3c(N4CCOCC4)nc(Nc4cc(C5CCC5)n[nH]4)nc3c2c1` [Example 55, N-(3-cyclobutyl-1H-pyrazol-5-yl)-4-morpholinopyrido[3′,2′:4,5]furo[3,2-d]pyrimidin-2-amine hydrochloride], half-maximal inhibition (IC50) was put at 0.206 µM.

Compound `c1cncc(Nc2nc(N3CCOCC3)c3oc4ncccc4c3n2)c1` [Example 39, 4-morpholino-N-(pyridin-3-yl)pyrido[3′,2′:4,5]furo[3,2-d]pyrimidin-2-amine] showed an IC50 of 0.677 µM.

As to `Cc1cc(Nc2nc(N3CCOCC3)c3oc4ncccc4c3n2)[nH]n1` [Example 8, N-(3-Methyl-1H-pyrazol-5-yl)-4-morpholinopyrido[3′,2′:4,5]furo[3,2-d]pyrimidin-2-amine], the IC50 is 2.61 µM.

For `c1cnc2oc3c(N4CCOCC4)nc(Nc4cc(CC5CCC5)n[nH]4)nc3c2c1` [Example 56, N-(3-(cyclobutylmethyl)-1H-pyrazol-5-yl)-4-morpholinopyrido[3′,2′:4,5]furo[3,2-d]pyrimidin-2-amine hydrochloride], it took 1.54 µM to reach half-maximal inhibition (IC50).

The compound `c1ccc(Nc2nc(N3CCOCC3)c3oc4ncccc4c3n2)cc1` [Example 37, 4-morpholino-N-phenylpyrido[3′,2′:4,5]furo[3,2-d]pyrimidin-2-amine] showed an IC50 of 7.28 µM.

`c1cnc2oc3c(N4CCOCC4)nc(Nc4ccncc4)nc3c2c1` [Example 38, 4-morpholino-N-(pyridin-4-yl)pyrido[3′,2′:4,5]furo[3,2-d]pyrimidin-2-amine] returned an IC50 of more than 10 µM.
